# Data: PubChem BioAssay AID1259374 (The Scripps Research Institute Molecular Screening Center, 2018)
# Chains of the proteins cited; added tags and fusions are not shown.
# UniProt O75030, whole entry: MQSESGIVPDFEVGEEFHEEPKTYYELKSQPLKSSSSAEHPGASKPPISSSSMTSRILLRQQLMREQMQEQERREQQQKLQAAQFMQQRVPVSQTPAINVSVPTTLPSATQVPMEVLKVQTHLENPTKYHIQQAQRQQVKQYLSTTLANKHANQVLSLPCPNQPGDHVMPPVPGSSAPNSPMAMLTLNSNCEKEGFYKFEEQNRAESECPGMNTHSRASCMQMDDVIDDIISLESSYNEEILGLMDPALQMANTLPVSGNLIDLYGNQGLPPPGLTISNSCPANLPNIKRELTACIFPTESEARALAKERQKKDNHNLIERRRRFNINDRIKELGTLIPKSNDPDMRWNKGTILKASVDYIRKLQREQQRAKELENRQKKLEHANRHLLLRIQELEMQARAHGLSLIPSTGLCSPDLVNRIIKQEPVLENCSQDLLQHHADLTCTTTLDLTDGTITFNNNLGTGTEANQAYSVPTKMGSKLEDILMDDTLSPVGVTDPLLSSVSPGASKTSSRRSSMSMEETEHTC
# This is a selection; strong and weak results do not stand in their true shares. The source made the active and inactive calls. Rule as the data show it: active = inhibition above about 50%; inactive = the rest.
# Molecular target: Microphthalmia-associated transcription factor (Homo sapiens) (UniProt O75030)
# Test: MITF inhibitors, primary screen, biochemical, AlphaScreen, human (AID 1259374);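 also: 0% = vehicle wells with protein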
# Details: AlphaScreen MITF homodimerization, bead proximity signal; at 2.6 µM; active compounds read high
row,Compound,inhibition
1,CN(CCCl)CCCl,inactive: -16.7%
